Test results reported in article PMC10086585.

Chains of the proteins cited; added tags and fusions are not shown. A line that says so, or that is headed by a name, gives the form on record, which may keep a tag or linker.
mouse laminin‐I (mouse), one chain, as listed by the source, chain 1 of 3: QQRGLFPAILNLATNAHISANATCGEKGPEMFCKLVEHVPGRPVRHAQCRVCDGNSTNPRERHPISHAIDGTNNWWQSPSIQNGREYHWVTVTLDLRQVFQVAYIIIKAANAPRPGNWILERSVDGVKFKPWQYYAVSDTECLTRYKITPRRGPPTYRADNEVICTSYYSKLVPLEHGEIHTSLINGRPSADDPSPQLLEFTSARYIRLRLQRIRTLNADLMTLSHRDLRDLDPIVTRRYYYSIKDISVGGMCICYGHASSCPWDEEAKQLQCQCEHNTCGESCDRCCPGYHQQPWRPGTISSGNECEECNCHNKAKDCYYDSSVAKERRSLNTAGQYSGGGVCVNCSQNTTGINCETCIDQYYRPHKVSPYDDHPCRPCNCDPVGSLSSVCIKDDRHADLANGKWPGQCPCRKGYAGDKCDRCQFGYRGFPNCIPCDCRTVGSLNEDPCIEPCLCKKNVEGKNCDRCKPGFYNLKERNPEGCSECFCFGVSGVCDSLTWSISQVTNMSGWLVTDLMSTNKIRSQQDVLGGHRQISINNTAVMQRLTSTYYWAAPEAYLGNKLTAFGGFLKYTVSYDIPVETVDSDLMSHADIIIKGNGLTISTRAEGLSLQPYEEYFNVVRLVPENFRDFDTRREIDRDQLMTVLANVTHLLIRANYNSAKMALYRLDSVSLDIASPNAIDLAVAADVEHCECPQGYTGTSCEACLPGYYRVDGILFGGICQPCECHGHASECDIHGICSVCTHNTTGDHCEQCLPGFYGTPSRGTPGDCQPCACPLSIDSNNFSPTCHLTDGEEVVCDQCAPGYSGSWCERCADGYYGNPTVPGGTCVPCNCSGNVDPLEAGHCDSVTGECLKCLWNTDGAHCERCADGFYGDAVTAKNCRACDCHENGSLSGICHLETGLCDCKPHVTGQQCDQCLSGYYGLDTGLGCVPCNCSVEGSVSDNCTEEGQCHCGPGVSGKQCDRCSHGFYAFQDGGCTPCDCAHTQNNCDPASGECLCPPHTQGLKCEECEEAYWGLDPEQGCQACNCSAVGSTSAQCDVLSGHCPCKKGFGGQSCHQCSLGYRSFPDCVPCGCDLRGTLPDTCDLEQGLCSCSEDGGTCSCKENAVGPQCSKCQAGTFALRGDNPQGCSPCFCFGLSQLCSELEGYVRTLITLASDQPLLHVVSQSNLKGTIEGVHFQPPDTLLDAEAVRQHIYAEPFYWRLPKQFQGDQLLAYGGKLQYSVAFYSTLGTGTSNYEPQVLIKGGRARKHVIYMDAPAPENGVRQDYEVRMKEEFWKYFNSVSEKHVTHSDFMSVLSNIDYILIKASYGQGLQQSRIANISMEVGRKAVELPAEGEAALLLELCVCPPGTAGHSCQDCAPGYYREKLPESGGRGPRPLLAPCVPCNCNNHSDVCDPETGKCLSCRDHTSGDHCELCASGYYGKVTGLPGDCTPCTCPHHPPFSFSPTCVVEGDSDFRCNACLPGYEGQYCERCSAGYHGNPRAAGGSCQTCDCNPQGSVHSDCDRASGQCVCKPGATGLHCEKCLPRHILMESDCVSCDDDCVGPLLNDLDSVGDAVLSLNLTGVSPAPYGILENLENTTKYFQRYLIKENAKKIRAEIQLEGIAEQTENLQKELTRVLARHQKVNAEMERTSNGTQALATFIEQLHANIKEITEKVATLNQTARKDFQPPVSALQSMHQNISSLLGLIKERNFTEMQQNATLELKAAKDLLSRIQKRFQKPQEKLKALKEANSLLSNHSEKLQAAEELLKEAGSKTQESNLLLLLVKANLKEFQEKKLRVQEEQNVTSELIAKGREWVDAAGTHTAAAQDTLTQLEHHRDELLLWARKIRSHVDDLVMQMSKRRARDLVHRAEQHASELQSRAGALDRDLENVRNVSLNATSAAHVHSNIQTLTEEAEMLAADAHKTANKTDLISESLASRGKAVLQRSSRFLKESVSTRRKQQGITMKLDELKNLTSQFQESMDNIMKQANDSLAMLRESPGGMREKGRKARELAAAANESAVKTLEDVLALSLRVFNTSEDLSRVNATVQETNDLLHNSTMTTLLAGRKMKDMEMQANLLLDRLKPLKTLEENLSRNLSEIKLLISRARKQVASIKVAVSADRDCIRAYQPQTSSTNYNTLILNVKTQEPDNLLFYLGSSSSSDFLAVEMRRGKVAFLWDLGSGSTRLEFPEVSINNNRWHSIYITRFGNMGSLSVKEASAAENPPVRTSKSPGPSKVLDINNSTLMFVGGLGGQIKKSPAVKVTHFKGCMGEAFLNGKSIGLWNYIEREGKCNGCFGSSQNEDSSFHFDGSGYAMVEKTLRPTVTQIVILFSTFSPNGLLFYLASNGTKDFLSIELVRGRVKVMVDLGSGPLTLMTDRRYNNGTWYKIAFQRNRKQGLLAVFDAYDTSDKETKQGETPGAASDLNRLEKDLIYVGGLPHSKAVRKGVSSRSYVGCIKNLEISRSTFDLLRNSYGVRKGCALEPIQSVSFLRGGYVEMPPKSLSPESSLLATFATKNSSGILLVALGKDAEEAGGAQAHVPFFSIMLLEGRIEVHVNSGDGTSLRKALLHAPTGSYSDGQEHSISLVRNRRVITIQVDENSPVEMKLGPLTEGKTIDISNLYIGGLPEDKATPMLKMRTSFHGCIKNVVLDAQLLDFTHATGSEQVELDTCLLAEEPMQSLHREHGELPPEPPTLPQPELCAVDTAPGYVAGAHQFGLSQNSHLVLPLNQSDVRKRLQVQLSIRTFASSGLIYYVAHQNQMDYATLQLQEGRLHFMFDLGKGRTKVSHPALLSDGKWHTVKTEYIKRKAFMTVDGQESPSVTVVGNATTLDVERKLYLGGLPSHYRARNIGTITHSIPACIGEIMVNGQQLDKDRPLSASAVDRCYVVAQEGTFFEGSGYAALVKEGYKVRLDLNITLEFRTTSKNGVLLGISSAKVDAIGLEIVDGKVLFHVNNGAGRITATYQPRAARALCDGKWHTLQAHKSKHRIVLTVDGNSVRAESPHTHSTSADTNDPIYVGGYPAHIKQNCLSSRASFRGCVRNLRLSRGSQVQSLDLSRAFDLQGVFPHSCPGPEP
mouse laminin‐I (mouse), one chain, as listed by the source, chain 3 of 3: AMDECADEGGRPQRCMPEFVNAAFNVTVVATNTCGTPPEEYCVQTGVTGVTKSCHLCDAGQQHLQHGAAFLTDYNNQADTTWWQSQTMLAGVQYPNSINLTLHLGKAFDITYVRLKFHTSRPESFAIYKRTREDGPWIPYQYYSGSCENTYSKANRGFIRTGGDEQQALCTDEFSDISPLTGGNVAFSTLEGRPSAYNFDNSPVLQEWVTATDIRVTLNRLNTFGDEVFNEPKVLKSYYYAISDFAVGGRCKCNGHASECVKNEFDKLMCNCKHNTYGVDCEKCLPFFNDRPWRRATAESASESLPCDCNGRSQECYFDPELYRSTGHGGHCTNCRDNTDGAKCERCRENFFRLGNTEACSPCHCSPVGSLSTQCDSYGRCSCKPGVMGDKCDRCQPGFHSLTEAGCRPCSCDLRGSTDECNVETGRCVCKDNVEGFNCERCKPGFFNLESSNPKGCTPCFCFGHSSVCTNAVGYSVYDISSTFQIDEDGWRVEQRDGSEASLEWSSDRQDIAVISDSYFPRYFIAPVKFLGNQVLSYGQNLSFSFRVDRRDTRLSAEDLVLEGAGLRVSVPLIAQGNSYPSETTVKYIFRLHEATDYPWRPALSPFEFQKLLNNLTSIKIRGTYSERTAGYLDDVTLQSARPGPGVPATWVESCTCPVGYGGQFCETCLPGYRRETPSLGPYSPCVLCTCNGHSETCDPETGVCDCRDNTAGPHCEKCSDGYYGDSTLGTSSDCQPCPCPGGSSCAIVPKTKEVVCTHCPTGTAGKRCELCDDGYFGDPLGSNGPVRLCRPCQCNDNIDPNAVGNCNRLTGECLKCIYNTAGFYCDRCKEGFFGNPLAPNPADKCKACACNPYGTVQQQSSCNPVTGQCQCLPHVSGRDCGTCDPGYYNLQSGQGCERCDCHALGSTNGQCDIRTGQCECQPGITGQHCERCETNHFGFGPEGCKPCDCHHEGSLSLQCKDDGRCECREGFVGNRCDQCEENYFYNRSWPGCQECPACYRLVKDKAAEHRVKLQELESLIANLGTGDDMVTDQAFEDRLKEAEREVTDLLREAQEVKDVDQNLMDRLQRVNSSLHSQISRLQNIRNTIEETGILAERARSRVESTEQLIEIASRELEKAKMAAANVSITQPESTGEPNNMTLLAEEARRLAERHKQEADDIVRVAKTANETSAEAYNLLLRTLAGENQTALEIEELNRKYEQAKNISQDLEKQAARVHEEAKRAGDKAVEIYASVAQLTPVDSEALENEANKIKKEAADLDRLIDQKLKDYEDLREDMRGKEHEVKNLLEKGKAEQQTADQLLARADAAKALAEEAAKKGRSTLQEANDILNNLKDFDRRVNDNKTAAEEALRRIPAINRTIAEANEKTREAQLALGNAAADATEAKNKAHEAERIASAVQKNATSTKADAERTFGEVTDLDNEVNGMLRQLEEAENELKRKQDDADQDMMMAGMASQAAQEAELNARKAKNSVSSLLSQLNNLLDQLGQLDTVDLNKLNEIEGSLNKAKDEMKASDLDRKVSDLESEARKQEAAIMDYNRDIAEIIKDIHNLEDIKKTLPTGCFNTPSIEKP
mouse laminin‐I (mouse), one chain, as listed by the source, chain 2 of 3: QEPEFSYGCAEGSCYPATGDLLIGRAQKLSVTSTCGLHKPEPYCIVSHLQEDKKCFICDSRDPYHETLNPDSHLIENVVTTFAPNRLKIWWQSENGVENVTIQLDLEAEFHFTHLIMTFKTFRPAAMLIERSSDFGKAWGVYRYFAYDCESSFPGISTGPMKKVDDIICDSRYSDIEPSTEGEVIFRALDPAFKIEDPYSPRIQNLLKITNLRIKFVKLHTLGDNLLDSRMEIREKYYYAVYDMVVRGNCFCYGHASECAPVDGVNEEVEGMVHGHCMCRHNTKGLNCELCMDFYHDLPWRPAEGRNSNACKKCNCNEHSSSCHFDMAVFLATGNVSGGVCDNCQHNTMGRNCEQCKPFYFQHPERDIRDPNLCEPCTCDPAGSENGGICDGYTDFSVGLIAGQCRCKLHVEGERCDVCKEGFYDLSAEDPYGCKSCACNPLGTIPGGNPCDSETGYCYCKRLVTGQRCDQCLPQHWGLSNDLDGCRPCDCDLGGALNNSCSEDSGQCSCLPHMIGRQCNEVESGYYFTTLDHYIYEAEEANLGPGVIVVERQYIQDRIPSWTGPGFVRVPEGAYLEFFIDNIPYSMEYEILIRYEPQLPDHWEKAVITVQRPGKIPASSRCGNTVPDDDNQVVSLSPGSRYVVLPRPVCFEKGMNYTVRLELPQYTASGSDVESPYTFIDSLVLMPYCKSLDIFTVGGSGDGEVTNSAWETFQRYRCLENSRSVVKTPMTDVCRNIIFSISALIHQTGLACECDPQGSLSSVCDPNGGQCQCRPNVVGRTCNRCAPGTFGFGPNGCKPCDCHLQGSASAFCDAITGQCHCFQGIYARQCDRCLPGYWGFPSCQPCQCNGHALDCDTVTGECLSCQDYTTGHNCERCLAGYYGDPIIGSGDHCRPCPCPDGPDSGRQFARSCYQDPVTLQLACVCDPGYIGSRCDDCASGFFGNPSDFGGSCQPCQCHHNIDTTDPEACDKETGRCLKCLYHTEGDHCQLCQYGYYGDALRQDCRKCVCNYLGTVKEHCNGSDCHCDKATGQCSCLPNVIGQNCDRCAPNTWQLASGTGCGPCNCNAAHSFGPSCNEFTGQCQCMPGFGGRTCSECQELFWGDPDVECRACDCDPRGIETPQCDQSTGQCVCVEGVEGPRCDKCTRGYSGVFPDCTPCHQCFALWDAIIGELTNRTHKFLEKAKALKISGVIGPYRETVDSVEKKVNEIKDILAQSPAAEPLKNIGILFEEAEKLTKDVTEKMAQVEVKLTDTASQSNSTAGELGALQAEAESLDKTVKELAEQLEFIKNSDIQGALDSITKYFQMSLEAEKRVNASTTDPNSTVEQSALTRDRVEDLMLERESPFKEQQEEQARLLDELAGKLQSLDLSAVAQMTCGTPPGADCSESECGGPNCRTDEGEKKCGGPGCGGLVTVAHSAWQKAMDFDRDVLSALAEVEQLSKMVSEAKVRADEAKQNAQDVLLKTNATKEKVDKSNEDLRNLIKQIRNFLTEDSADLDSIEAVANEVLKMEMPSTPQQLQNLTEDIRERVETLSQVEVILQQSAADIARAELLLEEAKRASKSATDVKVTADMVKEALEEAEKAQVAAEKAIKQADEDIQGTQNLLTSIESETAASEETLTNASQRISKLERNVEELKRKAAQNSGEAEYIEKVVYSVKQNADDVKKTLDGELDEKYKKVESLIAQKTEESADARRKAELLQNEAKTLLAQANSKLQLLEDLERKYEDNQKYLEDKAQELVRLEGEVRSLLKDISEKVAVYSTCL

Molecular target: mouse laminin‐I (mouse)
Assay: BLI
Conditions: ligand; chains chain

A Kd of 2.95 nM was found for “recombinant human netrin‐1 (R&D), on HIS1K biosensors (from UniProt O95631 25-604)” in this work.
